Laboratory results from US7915223B2, “Antimicrobial agents” (priority 2004, dated 2011).

Test system: E. coli strain ATCC 35218
Format: cell-based, Escherichia coli
Conditions: tenth subculture generation after exposure to sub-lytic concentrations

## gentamycin
  relative MIC (increase of MIC value): 4 fold
